In brackets after ≈: the same amount, converted by molar mass.

The text below walks through data of patent US8877738B2, “Antipathogenic peptides” (priority 2009, dated 2014).

One experiment relates to HPV-16 PsV. The conditions noted are these: HPV-16-SEAP PsV preincubated with peptide, 293TT cells, 72 h post-infection.
The test system of experiment [1] is HCMV clinical isolate AL1. The following applies: HELFs, M.O.I. 1, 6 days p.i. The procedure: (§1) FIGS. 4A and 4B. […] HUVECs were infected with the endotheliotropic and clinical HCMV isolate VR1814 (FIG. 4B) at a M.O.I of 1. The extent of AD169 or AU replication was then assessed by titrating the infectivity of supernatants of HELF suspensions by standard plaque assay. The extent of VR1814 replication was measured by titrating the infectivity of supernatants of cell suspensions by the indirect immunoperoxidase staining procedure on HUVECs using a monoclonal antibody (mAb) reactive to the HCMV IE proteins. Plaques were microscopically counted, and the mean plaque counts for each peptide concentration were expressed as a percentage of the mean count of the controls. The number of plaques was plotted as a function of drug concentration, and the concentration producing a 50% reduction in plaque formation (IC50) was determined.
(§2) After 1 hour, they were infected with HCMV AD169 or HCMV AL1 at a M.O.I. of 1 PFU/cell. […] The cells and supernatants from the antiviral assay were then harvested and disrupted by sonication. The extent of virus replication was assessed by titrating the infectivity of supernatants of cell suspensions by standard plaque assay on HELFs.

In experiment [2] the test system is HCMV laboratory strain AD169. The conditions noted are these: HELFs, M.O.I. 1, treated 1 h before and during infection, 6 days p.i. The procedure: as §1, §2
For another experiment, the system named is HCMV VR1814. The following applies: HUVECs, M.O.I. 1, 6 days p.i. How it is done: as §1
The cells and supernatants from the antiviral assay were then harvested and disrupted by sonication.

For `CC[C@H](C)[C@H](NC(=O)[C@H](CCCNC(=N)N)NC(=O)[C@@H](NC(=O)[C@H](CCCNC(=N)N)NC(=O)[C@H](CC(C)C)NC(=O)[C@H](CO)NC(=O)[C@H](C)N)C(C)C)C(=O)N[C@@H](CCCCN)C(=O)N[C@@H](CCCCN)C(=O)NCCCC[C@H](NC(=O)[C@H](CCCCN)NC(=O)[C@H](CCCCN)NC(=O)[C@@H](NC(=O)[C@H](CCCNC(=N)N)NC(=O)[C@@H](NC(=O)[C@H](CCCNC(=N)N)NC(=O)[C@H](CC(C)C)NC(=O)[C@H](CO)NC(=O)[C@H](C)N)C(C)C)[C@@H](C)CC)C(=O)NCCCC[C@H](NC(=O)[C@H](CCCCNC(=O)[C@H](CCCCN)NC(=O)[C@H](CCCCN)NC(=O)[C@@H](NC(=O)[C@H](CCCNC(=N)N)NC(=O)[C@@H](NC(=O)[C@H](CCCNC(=N)N)NC(=O)[C@H](CC(C)C)NC(=O)[C@H](CO)NC(=O)[C@H](C)N)C(C)C)[C@@H](C)CC)NC(=O)[C@H](CCCCN)NC(=O)[C@H](CCCCN)NC(=O)[C@@H](NC(=O)[C@H](CCCNC(=N)N)NC(=O)[C@@H](NC(=O)[C@H](CCCNC(=N)N)NC(=O)[C@H](CC(C)C)NC(=O)[C@H](CO)NC(=O)[C@H](C)N)C(C)C)[C@@H](C)CC)C(=O)NCCC(N)=O` [SB105-A10, (ASLRVRIKK)4-Lys2-Lys-β-Ala], in the experiment on HPV-16 PsV, the “IC50 against HPV-16 PsV” value was 2.8 µg/mL (≈ 0.598 µM). In experiment [1], the “IC50, HCMV clinical isolate AL1 replication” value came out at 1.2 µg/mL (≈ 0.256 µM). Further, in experiment [2], the “50% inhibition of HCMV AD169 replication (IC50)” value came to 1.36 µg/mL. Besides, the “IC50, endotheliotropic HCMV VR1814 replication” value in the experiment with HCMV VR1814 was 1.3 µg/mL (≈ 0.278 µM).
